As a reminder, the Ki is a dissociation constant, usually derived from enzyme kinetics or from competition with a known ligand.

Chains of the proteins cited; added tags and fusions are not shown.
UniProt Q8NER1, whole entry: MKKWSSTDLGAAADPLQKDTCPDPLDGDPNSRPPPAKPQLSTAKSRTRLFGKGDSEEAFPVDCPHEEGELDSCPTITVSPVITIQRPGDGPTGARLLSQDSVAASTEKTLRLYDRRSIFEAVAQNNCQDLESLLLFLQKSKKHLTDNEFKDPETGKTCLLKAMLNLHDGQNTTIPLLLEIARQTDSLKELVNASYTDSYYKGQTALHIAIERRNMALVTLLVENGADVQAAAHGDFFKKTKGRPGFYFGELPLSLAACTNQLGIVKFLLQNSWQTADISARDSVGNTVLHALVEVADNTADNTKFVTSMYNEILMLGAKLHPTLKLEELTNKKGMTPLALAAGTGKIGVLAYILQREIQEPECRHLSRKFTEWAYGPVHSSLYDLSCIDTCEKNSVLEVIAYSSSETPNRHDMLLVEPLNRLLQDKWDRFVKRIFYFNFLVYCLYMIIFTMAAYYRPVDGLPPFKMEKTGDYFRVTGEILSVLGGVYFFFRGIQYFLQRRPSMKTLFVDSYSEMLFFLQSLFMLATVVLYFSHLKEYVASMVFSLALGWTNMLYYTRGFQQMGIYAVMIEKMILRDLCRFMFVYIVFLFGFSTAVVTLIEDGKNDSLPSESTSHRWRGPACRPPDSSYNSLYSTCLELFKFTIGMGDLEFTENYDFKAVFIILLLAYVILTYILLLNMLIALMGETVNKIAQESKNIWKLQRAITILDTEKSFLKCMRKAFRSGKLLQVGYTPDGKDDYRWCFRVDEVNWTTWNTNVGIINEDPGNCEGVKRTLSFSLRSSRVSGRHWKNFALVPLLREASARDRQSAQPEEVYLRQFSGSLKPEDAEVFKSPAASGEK
UniProt O35433, whole entry: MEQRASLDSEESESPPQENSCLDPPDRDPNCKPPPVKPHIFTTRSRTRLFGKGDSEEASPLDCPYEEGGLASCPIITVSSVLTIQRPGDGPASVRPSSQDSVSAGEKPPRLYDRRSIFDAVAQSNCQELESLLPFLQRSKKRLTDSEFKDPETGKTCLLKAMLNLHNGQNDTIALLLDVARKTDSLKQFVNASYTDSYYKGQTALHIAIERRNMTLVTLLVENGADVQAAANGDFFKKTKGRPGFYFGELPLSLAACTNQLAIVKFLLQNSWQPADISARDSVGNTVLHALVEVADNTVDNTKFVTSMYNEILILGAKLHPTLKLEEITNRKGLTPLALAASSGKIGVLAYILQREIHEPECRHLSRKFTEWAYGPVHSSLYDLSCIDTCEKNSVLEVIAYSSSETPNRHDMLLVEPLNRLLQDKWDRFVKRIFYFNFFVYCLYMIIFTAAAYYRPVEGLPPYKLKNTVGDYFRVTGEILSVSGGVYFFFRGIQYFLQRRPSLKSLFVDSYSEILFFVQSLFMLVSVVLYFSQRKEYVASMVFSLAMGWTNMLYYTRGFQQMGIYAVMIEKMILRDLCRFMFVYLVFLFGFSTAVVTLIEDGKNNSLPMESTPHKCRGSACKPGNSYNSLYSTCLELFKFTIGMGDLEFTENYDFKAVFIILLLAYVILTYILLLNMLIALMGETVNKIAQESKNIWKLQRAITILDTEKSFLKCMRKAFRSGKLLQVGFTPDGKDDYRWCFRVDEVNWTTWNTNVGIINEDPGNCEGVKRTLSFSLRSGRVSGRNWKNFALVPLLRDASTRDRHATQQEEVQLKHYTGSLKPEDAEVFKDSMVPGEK

From US7183411B2, “Naphthol, quinoline and isoquinoline-derived urea modulators of vanilloid VR1 receptor” (Janssen Pharmaceutica N.V., priority 2002, dated 2007) come the findings set out here.

Assay [1] has as its target human VR1 vanilloid receptors (Homo sapiens, UniProt Q8NER1). Kind of assay: [3H] RTX binding assay, hVR1 membranes from transfected HEK293 cells. Particulars: read-out: Receptor binding Ki.
The target of assay [2] is VR1 (rat spinal cord) (Rattus norvegicus, UniProt O35433). Kind of assay: [3H]-RTX binding assay using rat tissue (spinal cord membranes). The following applies: read-out: Receptor binding Ki (rat), cells marked (rat).

Consider `O=C(NCc1ccc(Cl)c(C(F)(F)F)c1)Nc1cccc2cnccc12`, for which, in assay [1], the Ki is 0.82 nM.

Turning to `O=C(NCc1cc2ccccc2s1)Nc1cccc2ccc(O)cc12`, the Ki in assay [2] amounted to 349 nM.

Turning to `COc1ccc(C(CNC(=O)Nc2cccc3cnccc23)Cc2ccccc2)cc1` (stereo not drawn), the inhibitory constant (Ki) in assay [1] turned out to be 5.89 nM.
